From the NIST ThermoML archive (doi:10.1016/j.fluid.2016.02.009)

Conditions: Liquid, Vibrating tube method

CCCCOCCCC [dibutyl ether]
mass density [kg/m3]
Conditions | 283.15 K | 288.15 K | 293.15 K | 298.15 K | 303.15 K | 308.15 K | 318.15 K | 323.15 K | 328.15 K | 333.15 K
100 kPa | 777 ± 0.3 | 772.71 ± 0.3 | 768.41 ± 0.3 | 764.09 ± 0.3 | 759.76 ± 0.3 | 755.41 ± 0.3 | 746.7 ± 0.3 | 742.29 ± 0.3 | 737.85 ± 0.3 | 733.4 ± 0.3
5000 kPa | 781.24 ± 0.32 | 777.03 ± 0.33 | 772.85 ± 0.33 | 768.6 ± 0.33 | 764.4 ± 0.33 | 760.14 ± 0.33 | 751.63 ± 0.33 | 747.39 ± 0.33 | 743.06 ± 0.33 | 738.78 ± 0.33
10000 kPa | 785.22 ± 0.35 | 781.07 ± 0.36 | 777.07 ± 0.36 | 772.95 ± 0.36 | 768.85 ± 0.36 | 764.73 ± 0.36 | 756.5 ± 0.36 | 752.4 ± 0.37 | 748.22 ± 0.37 | 744.06 ± 0.37
15000 kPa | 789.01 ± 0.38 | 785 ± 0.39 | 781.04 ± 0.39 | 777.05 ± 0.39 | 773.07 ± 0.39 | 769.04 ± 0.39 | 761.07 ± 0.4 | 757.08 ± 0.4 | 753.05 ± 0.4 | 749.04 ± 0.4
20000 kPa | 792.62 ± 0.41 | 788.61 ± 0.42 | 784.83 ± 0.42 | 780.93 ± 0.42 | 777.07 ± 0.42 | 773.17 ± 0.43 | 765.43 ± 0.43 | 761.57 ± 0.43 | 757.64 ± 0.44 | 753.72 ± 0.44
25000 kPa | 796.12 ± 0.44 | 792.26 ± 0.45 | 788.51 ± 0.45 | 784.66 ± 0.45 | 780.91 ± 0.46 | 777.08 ± 0.46 | 769.53 ± 0.47 | 765.77 ± 0.47 | 761.95 ± 0.47 | 758.2 ± 0.48
30000 kPa | 799.48 ± 0.47 | 795.67 ± 0.48 | 792.02 ± 0.48 | 788.29 ± 0.48 | 784.58 ± 0.49 | 780.86 ± 0.49 | 773.46 ± 0.5 | 769.82 ± 0.5 | 766.06 ± 0.51 | 762.39 ± 0.51
35000 kPa | 802.7 ± 0.5 | 799.01 ± 0.51 | 795.4 ± 0.51 | 791.72 ± 0.52 | 788.11 ± 0.52 | 784.45 ± 0.53 | 777.24 ± 0.54 | 773.67 ± 0.54 | 770.02 ± 0.55 | 766.45 ± 0.55
40000 kPa | 805.84 ± 0.54 | 802.2 ± 0.54 | 798.65 ± 0.55 | 795.05 ± 0.55 | 791.5 ± 0.56 | 787.91 ± 0.56 | 780.87 ± 0.58 | 777.34 ± 0.58 | 773.78 ± 0.59 | 770.3 ± 0.59
45000 kPa | 808.84 ± 0.57 | 805.31 ± 0.57 | 801.84 ± 0.58 | 798.27 ± 0.59 | 794.77 ± 0.59 | 791.25 ± 0.6 | 784.34 ± 0.61 | 780.89 ± 0.62 | 777.42 ± 0.62 | 773.98 ± 0.63
50000 kPa | 811.78 ± 0.6 | 808.25 ± 0.61 | 804.88 ± 0.61 | 801.34 ± 0.62 | 797.96 ± 0.63 | 794.48 ± 0.63 | 787.7 ± 0.65 | 784.31 ± 0.65 | 780.92 ± 0.66 | 777.5 ± 0.67
55000 kPa | 814.68 ± 0.63 | 811.16 ± 0.64 | 807.8 ± 0.64 | 804.38 ± 0.65 | 801.03 ± 0.66 | 797.62 ± 0.67 | 790.93 ± 0.68 | 787.61 ± 0.69 | 784.25 ± 0.7 | 780.96 ± 0.7
60000 kPa | 817.42 ± 0.66 | 814.04 ± 0.67 | 810.68 ± 0.67 | 807.34 ± 0.68 | 804.04 ± 0.69 | 800.63 ± 0.7 | 794.06 ± 0.71 | 790.8 ± 0.72 | 787.5 ± 0.73 | 784.27 ± 0.74
65000 kPa | 820.1 ± 0.69 | 816.76 ± 0.7 | 813.46 ± 0.7 | 810.16 ± 0.71 | 806.89 ± 0.72 | 803.58 ± 0.73 | 797.14 ± 0.75 | 793.92 ± 0.75 | 790.65 ± 0.76 | 787.49 ± 0.77

Numbers after ± are expanded uncertainties.
